{
  "source": "patent US20160375019A1",
  "about": "“TREATMENT OF CHRONIC GRAFT VERSUS HOST DISEASE WITH SYK INHIBITORS” (Gilead Sciences, Inc., priority 2015, published 2016)",
  "system": "basophils (CD63 expression) in human whole blood",
  "assay": "384-well HTBS Whole Blood CD63 Basophil Assay",
  "assay_type": "cell-based",
  "conditions": "human whole blood (25% blood); comparison table",
  "description": "Syk activity was assessed in relation to reduced activation of basophils as measured by the expression of CD63 in a human whole blood basophil cellular assay (25% blood). Basophil activation was measured in human whole blood using the Flow CAST kit (Buhlmann Laboratories AG, Baselstrasse, Switzerland) following the protocol provided by the manufacturer with minor modifications. Fresh human whole blood in heparin was collected and delivered same day (AllCells, Emeryville, Calif.). Whole blood samples were incubated with either DMSO (1% final) or serial diluted compounds in DMSO for 60 minutes at 37° C. Basophils were activated using the anti-FceRI mAb and stained with anti-CD63-FITC and anti-CCR3-PE for 20 minutes at 37° C. (per well: 50 μL of whole blood was mixed with 113 μL of stimulation buffer, 8.5 μL anti-FceRI mAb, 8.5 μL Ab stain CCR3-PE/CD63-FITC). Cells were centrifuged at 1000×g for 18 minutes and 150 μL/well of supernatant removed. […] Degranulation (basophil activation) was detected by CD63 surface expression on CCR3 positive cells. The percent CD63 positive cells within the gated basophil population were determined and normalized to the DMSO (negative control) and control compound (positive control).",
  "data": [
    {"smiles": "COc1ccc(Nc2nc(-c3ccc(N)nc3)cn3ccnc23)cc1OC", "note": "[6-(6-aminopyridin-3-yl)-N-(3,4-dimethoxyphenyl)imidazo[1,2-a]pyrazin-8-amine, reference compound]", "values": [
      {"measurement": "IC50", "value": 734, "unit": "nM"}
    ]}
  ]
}
